The list shows a part of the results, in another mix than the full data. Active and inactive are the calls of the source.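 The calls were made as follows: active = inhibition exceeding the mean over every tested compound plus 3 SD (cut at about 30% in these data); inactive = the rest.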
molecular target: (Lyso)-N-acylphosphatidylethanolamine lipase (Mus musculus) (UniProt Q8VD66); assay: ABHD4 inhibitors, primary screen, biochemical, fluorescence polarization, mouse (AID 720543); settings: purified mABHD4, FP-Rh probe fluorescence polarization; at 8.92 µM; hits give high values;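 also: 0% = plate median of compound wells and 100% = S159A mutant with DMSO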
Summary of the method: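 System: mouse ABHD4 enzyme, wild type / Medium: HEPES pH 7.0, NaCl, Pluronic buffer / Reagent: FP-Rh activity-based fluorescent probe / Control set: S159A mutant high control, sample median low control / Detection: fluorescence polarization with parallel and perpendicular emission, 525/598 nm / Schedule: 45 min + 60 min at 25 °C / Compound dosing: 8.92 µM, single dose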

Chains of the proteins cited; added tags and fusions are not shown. Lines headed by an entry give the natural chain unless they say otherwise; changes in a name come on top.
UniProt Q8VD66: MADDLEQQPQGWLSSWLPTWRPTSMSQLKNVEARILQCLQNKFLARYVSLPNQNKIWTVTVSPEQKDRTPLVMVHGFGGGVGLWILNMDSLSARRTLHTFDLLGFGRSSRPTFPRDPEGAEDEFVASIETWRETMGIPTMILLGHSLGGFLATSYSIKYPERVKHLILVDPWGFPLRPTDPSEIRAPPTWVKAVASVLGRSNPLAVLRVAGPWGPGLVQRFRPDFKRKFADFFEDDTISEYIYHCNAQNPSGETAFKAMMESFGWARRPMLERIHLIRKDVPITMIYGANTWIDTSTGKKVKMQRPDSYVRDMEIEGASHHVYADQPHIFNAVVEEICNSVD

Compound | inhibition
O=C(Nc1cc([As](=O)(O)O)ccc1O)c1ccccc1 | inactive: 4.76%
O=P1(N(CCCl)CCCl)OCCCS1 (stereo not drawn) | inactive: 2.17%
COC(=O)C1(C)COP(=O)(Nc2ccccc2)OC1 (stereo not drawn) | inactive: 5.08%
O=[N+]([O-])c1cccc(NC2=NCC(CBr)S2)c1 (stereo not drawn) | inactive: -4.95%
O=C(O)CNc1ccc([As](=O)(O)O)cc1 | inactive: 3.46%
CC(C)(C)C(=O)NC(Sc1ccncn1)C(Cl)(Cl)Cl (stereo not drawn) | inactive: -3.96%
O=[N+]([O-])c1ncn(CCn2ncnc2[N+](=O)[O-])n1 | inactive: 0.58%
CC(=O)N1C2C3N(C(C)=O)C1C1N(C(C)=O)C(C(N1C(C)=O)N3C(C)=O)N2C(C)=O | inactive: 1.87%
O=[N+]([O-])c1cccc2n[nH]nc12 | inactive: -4.04%
O=[N+]([O-])c1cc([N+](=O)[O-])c(CCNc2ccccc2)c([N+](=O)[O-])c1 | active: 66.8%
CCc1nc2c(n1)c1c(non1O)c1c2no[n+]1[O-] | inactive: 3.24%
Cc1ccc(NP(=O)(Oc2ccccc2)Oc2ccccc2)nc1 | inactive: 0.48%
COc1ccc(C2=NCC(CBr)S2)cc1 (stereo not drawn) | inactive: -3.08%
CN(C)C(=O)OCCc1n(C)cc[n+]1C | inactive: -1.76%
CC(C)c1nc(Nc2ccccc2)n(P(=O)(N(C)C)N(C)C)n1 | inactive: -7.59%
CC(C)=N/N=C(\N)N[N+](=O)[O-] | inactive: -0.71%
CC1CCN(C(=O)Oc2c(Cl)cc(Cl)c3cccnc23)CC1 | inactive: 20%
c1cc(-c2nn[nH]n2)ccc1-c1nn[nH]n1 | inactive: 8%
C[N+]1=C2C=CC=CC=C2SC12C([N+](=O)[O-])=CC([N+](=O)[O-])=C[C-]2[N+](=O)[O-] (stereo not drawn) | active: 41.7%
Nc1ccc([As](=O)(O)c2ccc(N)cc2)cc1 | inactive: -3.79%
CCN(/C(=N/P(=O)(N1CCOCC1)N1CCOCC1)N1CCOCC1)c1ccc(OC)cc1 | inactive: -4.7%
Cc1ccc(OP(=O)(Nc2nccs2)Oc2ccc(C)cc2)cc1 | inactive: 1.35%
COc1ccccc1OP(=O)(Nc1ccc(C)cn1)Oc1ccccc1OC | inactive: -2.37%
CN1CCCC(OC(=O)C(c2ccccc2)c2ccccc2)C1 (stereo not drawn) | inactive: 10.9%
Clc1ccc(Cl)c(NC2=NCC(CBr)S2)c1 (stereo not drawn) | inactive: 6.67%
NC(=O)c1cc([N+](=O)[O-])cc([N+](=O)[O-])c1N | inactive: 1.81%
Cc1ccc(N/C(=N/P(=O)(N2CCOCC2)N2CCOCC2)N2CCOCC2)cc1 | inactive: 2.46%
CN(C(=O)Cc1ccc(Cl)c(Cl)c1)[C@H]1CCCC[C@H]1N1CCCC1 | inactive: 0.9%

Reference: PubChem BioAssay AID720543 (The Scripps Research Institute Molecular Screening Center, 2013)
